The assay has as its target Norepinephrine transporter (Rattus norvegicus, UniProt Q9WTR4). The assay can be described thus: Inhibition of high affinity uptake by the norepinephrine transporter from rat synaptosomal nerve endings by using [3H]NE as radioligand.

By UniProt entry, the sequences of proteins in these tests, tags left out.
UniProt Q9WTR4, whole entry: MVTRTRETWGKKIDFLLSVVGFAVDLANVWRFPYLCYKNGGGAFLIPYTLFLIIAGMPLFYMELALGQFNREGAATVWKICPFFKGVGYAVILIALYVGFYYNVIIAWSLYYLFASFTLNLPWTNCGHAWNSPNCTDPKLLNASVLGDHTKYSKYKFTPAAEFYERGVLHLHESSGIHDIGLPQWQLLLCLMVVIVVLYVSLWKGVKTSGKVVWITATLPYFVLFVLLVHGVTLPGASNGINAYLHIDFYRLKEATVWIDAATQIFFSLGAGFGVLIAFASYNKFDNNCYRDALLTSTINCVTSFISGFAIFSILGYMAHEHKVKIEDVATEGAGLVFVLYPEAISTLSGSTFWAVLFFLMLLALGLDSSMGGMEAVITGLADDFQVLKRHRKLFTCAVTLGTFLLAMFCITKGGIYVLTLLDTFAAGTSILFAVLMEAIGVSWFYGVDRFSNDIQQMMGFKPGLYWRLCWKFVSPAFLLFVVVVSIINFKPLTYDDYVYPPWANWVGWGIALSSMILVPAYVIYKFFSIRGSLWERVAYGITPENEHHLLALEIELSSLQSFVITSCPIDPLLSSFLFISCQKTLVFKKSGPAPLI

By Ki is commonly meant a measure of affinity in units of concentration, obtained from inhibition or displacement. A lower Ki goes with tighter binding.

For `CN1CCC(c2ccc(Cl)cc2)C(C[S+]([O-])CC(N)=O)C1` (stereo unspecified), the inhibitory constant (Ki) amounted to 178 nM.
